Target: P2X7 (Homo sapiens (Human), UniProt Q99572)
Assay: Radioligand binding, human P2X7-1321N1 cell membranes, tracer tritiated A-804598
Details: Table 2
Experimental: P2X7 Antagonism in Recombinant Human P2X7 Cells or Recombinant Rat P2X7 Cells: (a) Ca^2+ Flux and (b) Radioligand Binding
(b) Radioligand Binding: human or rat P2X7-1321N1 cells were collected and frozen @−80° C. On the day of the experiment, cell membrane preparations were made according to standard published methods. The total assay volume was 100 μl:10 μl compound (10×)+(b) 40 μl tracer (2.5×)+50 μl membrane (2×). The tracer used for the assay was tritiated A-804598. The compound can be prepared as described in the literature. (Donnelly-Roberts, D. Neuropharmacology 2008, 56 (1), 223-229.) Compounds, tracer and membranes were incubated for 1 hour @ 4° C. The assay was terminated by filtration (GF/B filters pre-soaked with 0.3% PEI) and washed with washing buffer (Tris-HCl 50 mM). The IC50 generated in the binding assay was corrected for tracer concentration and affinity of the tracer to derive at the affinity (K) of the test compounds. […] Data are analyzed and graphed on Graphpad Prism 5. For analysis, each concentration point is averaged from triplicate values and the averaged values are plotted on Graphpad Prism.

Amino acid sequences for entries named in this document (tags omitted). A change or cut given only in a name is not applied to a line headed by its entry.
UniProt Q99572: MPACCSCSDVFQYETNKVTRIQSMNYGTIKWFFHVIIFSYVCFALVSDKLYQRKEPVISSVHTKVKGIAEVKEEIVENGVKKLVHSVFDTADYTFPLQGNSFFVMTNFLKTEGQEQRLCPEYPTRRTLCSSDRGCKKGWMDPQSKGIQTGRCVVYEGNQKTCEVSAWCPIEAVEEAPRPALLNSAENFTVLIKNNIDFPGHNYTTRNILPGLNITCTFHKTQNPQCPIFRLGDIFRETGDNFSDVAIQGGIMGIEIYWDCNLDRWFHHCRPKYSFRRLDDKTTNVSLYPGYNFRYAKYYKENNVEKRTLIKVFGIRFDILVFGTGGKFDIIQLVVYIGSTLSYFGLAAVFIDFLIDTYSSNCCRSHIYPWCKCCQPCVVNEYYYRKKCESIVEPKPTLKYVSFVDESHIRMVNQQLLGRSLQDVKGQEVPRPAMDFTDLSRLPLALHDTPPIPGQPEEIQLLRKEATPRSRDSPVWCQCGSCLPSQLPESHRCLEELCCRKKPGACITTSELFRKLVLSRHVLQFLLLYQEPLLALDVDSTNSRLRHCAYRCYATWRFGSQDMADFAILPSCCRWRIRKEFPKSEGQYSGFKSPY

Ki: 3.2 nM
Compound: O=C1c2nnc(-c3cnccn3)n2C[C@H](C2CC2)N1Cc1cccc(C(F)(F)F)c1Cl (single isomer, unassigned) [Example 63, (6S*)-7-[2-Chloro-3-(trifluoromethyl)benzyl]-6-cyclopropyl-3-pyrazin-2-yl-6,7-dihydro[1,2,4]triazolo[4,3-a]pyrazin-8(5H)-one]
